This is an account of results in patent publication US5817776A, “Amino acid analogs for tumor imaging” (priority 1996, dated 1998).

A short description of data set [1]: in vivo. The note with it: rat, iv. Here is the method:
In vivo distribution of a compound of the invention, [^18 F]-1-amino-3-fluoro-cyclobutane-1-carboxylic acid (FACBC) was measured in rats having an implanted gliosarcoma. Accumulation in various tissue was measured at 5 min and 60 min post-administration.
Distribution of Radioactivity in Tissues of Unfasted Male
Fisher Rats following Intravenous Administration of [^18 F]FACBC

Data set [2] deals with normal tissue. The note with it: in vivo; cited from earlier work.

In general, tissue uptake refers to the percentage of the injected dose found per gram of tissue. For `OC[C@H]1OC(O)[C@H]([18F])[C@@H](O)[C@@H]1O` (stereo partly drawn) [[^18 F]2-FDG, [^18 F]-2-fluoro-2-deoxy-D-glucose, reference compound], in data set [1], the tissue uptake at 5 min was found to be 1.29 %ID/g and the tissue uptake at 1 h was determined as 1.05 %ID/g. In addition, in data set [2], the “uptake in infectious tissue and in the bladder (in words)” value was “high uptake of the 2-FDG radioactivity in infectious tissue and in the bladder”; the “uptake in normal tissue (in words)” value is “high uptake in normal tissue”.
